Ab-14 light chain CDR variants: yeast mating affinities

Values reported by Engelhart et al. 2022, doi:10.1038/s41597-022-01779-4 (FLAb copy).

All variants were tested on one target, the spike HR2 peptide PDVDLGDISGINAS (SARS-CoV-2).

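The starting antibody came from a phage panning campaign against this peptide. The library (AAYL50) carries one to three amino acid substitutions per variant, with no insertions or deletions. Affinity was read by AlphaSeq, a pooled yeast mating assay with surface-displayed partners. Pairs that bind mate more often; barcode pairs of the diploids are counted by sequencing. A regression on co-assayed BCL2-family reference pairs converts the normalised counts of each replicate to an apparent Kd. The assay was run in three technical replicates.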

Parent: Ab-14, a human scFv built as VH, three GGGGS repeats, VL. Only the CDRs of the light chain vary.
VH: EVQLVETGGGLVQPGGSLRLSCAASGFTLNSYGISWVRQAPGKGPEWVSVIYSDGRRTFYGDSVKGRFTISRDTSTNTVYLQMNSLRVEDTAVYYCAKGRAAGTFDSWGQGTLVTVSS
VL: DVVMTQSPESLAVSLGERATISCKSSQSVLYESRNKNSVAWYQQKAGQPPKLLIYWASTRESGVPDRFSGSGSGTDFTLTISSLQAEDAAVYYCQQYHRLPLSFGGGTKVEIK

Variants are written as CDR1, CDR2 and CDR3 of the light chain (limits as in the source). Parent: KSSQSVLYESRNKNSVA, WASTRES, QQYHRLPLS.
The read-out is the apparent dissociation constant on a log10 scale (nM): the lower, the stronger.
Where no diploid with the target was found in that replicate, the entry reads "ND": below detection, most likely a poor binder, though not proof of it.
Background: pairings of library AAYL50 with three empty control strains gave a value in 18% of cases (median 4.19, 5th percentile 2.99). Values in that range, when seen in few replicates, are hard to tell from nonspecific mating. For each scFv, signals with the empty controls are counted beside the result, with their mean in brackets.

CDR-L1,CDR-L2,CDR-L3,"log10 Kd, replicates",signal with controls
KSSQSWLYESRNKNSVA,WRSTMES,QQYHRLPLS,ND ND ND,2/9 (3.76)
WSSQSVLYESRNKNSVA,WASTGES,QQYHRRPLS,ND ND ND,3/9 (3.86)
WSSQSVLYESRNKNIVA,WASTRES,QQYHRLQLS,5.18 5.59 ND,3/9 (4.47)
KSSQSVLYESGNKNSVA,WAWTRES,HQYHRLPLS,1.15 1.23 1.37,2/9 (4.00)
KSSQSVLYESRNKNSVA,WASTRES,QQYPTLPLS,5.89 ND ND,1/9 (3.02)
KSGQSVLYEERNKNSVA,WASTRES,QQYHRHPLS,ND ND ND,0/9
ESSQSVLYESRNKNSVA,WASTRAS,IQYHRLPLS,ND 4.18 ND,1/9 (2.51)
KSSYSVLYESRNKNSVA,WASTRES,QQYHRIPLS,1.64 1.74 2.03,3/9 (3.97)
KSSDSVLYESCNKNSVA,TASTRES,QQYHRLPLS,ND ND ND,0/9
KSSQSVLYEFKNKNSVA,WASTREH,QQYHRLPLS,ND 4.70 ND,1/9 (2.65)
KSSQSVMYESRNKNSVA,WASTAQS,QQYHRLPLS,ND 2.52 3.78,0/9
KSMQSVLYESRNKNSVA,WASTRES,AQDHRLPLS,ND ND ND,2/9 (3.80)
KSSQSVLYESRGDNSVA,WASTRES,QDYHRLPLS,0.78 1.21 0.95,0/9
KSSQSVLYESRNKNSVA,AASTREV,QRYHRLPLS,1.83 1.92 2.32,1/9 (3.99)
KSSQSVIYENRNINSVA,WASTRES,QQYHRLPLS,0.95 1.15 1.08,3/9 (4.18)
KSSQSVLYEERNKNSVA,WAGTRES,QQYHREPLS,4.15 ND ND,1/9 (3.34)
KSSQSVLYESRNKNSVA,WASTRAS,QQYHRLGLS,1.12 1.07 1.61,0/9
KSSQSVLYPSRNKNSVA,WASTRET,QNYHRLPLS,ND ND ND,0/9
KSSQSVLYKSRNKNSNA,WASTRES,QQYHRHPLS,ND 3.71 ND,2/9 (4.56)
KSSQSVLYESRNKNSVA,WASTIEP,MQYHRLPLS,1.92 2.22 2.15,3/9 (4.66)
KSSQSVLYESRNKNSVA,WESTAER,QQYHRLPLS,ND ND ND,0/9
KSSQPVLYESRNKNSVA,WAETRES,QQYHRLPSS,4.89 5.35 ND,5/9 (4.40)
KSSQHVLYESRPKNSVA,WASTRES,QCYHRLPLS,ND ND ND,0/9
KSSQSVLYESRDKESVA,WASARES,QQYHRLPLS,2.23 2.95 2.40,1/9 (3.10)
KSSQSVLDESRNKNSVA,YAKTRES,QQYHRLPLS,0.83 1.03 1.10,2/9 (3.78)
KSSQSVLYESANKNSVA,WDSTKES,QQYHRLPLS,1.31 1.42 1.38,0/9
KSSQSVLYKSRNKNPVA,WASTRES,QQYMRLPLS,3.05 3.45 3.35,2/9 (3.61)
KSSQSVLYESRNKNSVT,VASTRES,QQLHRLPLS,ND 3.58 2.93,2/9 (3.81)
KSSQSFLYEIRNKNSVA,WASTRES,QQYHRLPCS,ND 2.45 2.74,0/9
KSSQSCLYESRNKNSFA,WASTREF,QQYHRLPLS,ND ND ND,0/9
KSSQSVLYESRNKNSVA,NASTRES,QQYHILPLS,0.06 0.32 0.20,1/9 (4.54)
KSSLSVLYEKRNRNSVA,WASTRES,QQYHRLPLS,ND ND ND,2/9 (3.45)